Cneo AK release = Cryptococcus neoformans lysis via adenylate kinase release; AID 651654; C. neoformans lysis, adenylate kinase release luminescence, 4 h; normalised: neutral wells 0, clomiphene wells 100; 0.2% of 360,000 active; lysis activity, % at 15 µM;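 active means mean lysis activity across replicates of at least 80%, whatever share of replicates individually reach that level; inactive means mean lysis activity below 80%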
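Material: C. neoformans cells; Schedule: 4 h static compound exposure, 37 °C, read 1 h post-reagent; Measured by: adenylate kinase release luminescence; Read-out: signal increase indicating cell lysis; Controls: Clomiphene as positive lysis control.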
miR122 inh = miR-122 inhibition in Huh7 cells | Huh7 miR-122 Renilla luciferase sensor, 48 h; neutral wells = 0, positive control = 100 | activation (reporter increase), % at 12.5 µM | 0.3% of 340,000 active | AID 602342;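 active means mean replicate activation score at least 90 and every replicate individually at or above 90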;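 further: higher luciferase means less miR-122 activity so hits act as miR-122 inhibitors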
Yeast UUG start-1 = modulators of yeast start codon fidelity, primary screen, whole organism, S. cerevisiae, single point, plate reader | AID 602363, 2012 | actives 0.13% (n = 350,000) | activity score, % at 18.7 µM | S. cerevisiae UUG-firefly luciferase reporter, luminescence/redox ratio;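 active means replicate mean at a twofold rise or more, about +100% in these data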;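 further: firefly luciferase made from a UUG start codon reports start codon fidelity; reporter light over untreated wells divided by growth signal over untreated wells; some hits fall short of that in this replicate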
Statin myotox sup = suppressors of simvastatin-induced myotoxicity in C2C12 myotubes; rescue of ATP level, % at 7.49 µM; 0.78% of 330,000 active; AID 602340; ATP luminescence, 48 h; scaled: DMSO 0, geranylgeraniol control 100;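 active means mean ATP rescue above about 67%, or every replicate alone reaching that limit, limit read from the data, passing the limit was not always enough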;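 further: myotubes were challenged with 10 µM simvastatin during compound exposure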
Yeast UUG start-2 = modulators of start codon recognition fidelity in yeast; shares compounds with Yeast UUG start-1; S. cerevisiae UUG-start firefly luciferase, luminescence, 4 h; 100% means double the DMSO signal; activation, % at 38 µM; 540 tested, under 10 active; AID 652061;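 active means signal increase whose fitted curve reaches an absolute level of 40 at a concentration under 10 µM; inactive means activity opposite to the expected increase, or the rest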
An asterisk follows results filed as active; i = inactive; nt = not tested or not shown; [ ] = another dose, or the depositor's remark. Compounds with a hit are over-represented: about 1.2% of the library has one in this group of screens.

SMILES | Cneo AK release | miR122 inh | Yeast UUG start-1 | Statin myotox sup | Yeast UUG start-2
O=C(C[C@@H]1CC[C@H]2[C@@H](COC[C@@H](O)CN2S(=O)(=O)c2cccc(F)c2)O1)Nc1ccccc1 | 4 | -4[16.7 µM] | nt | -2 | nt
COc1ccc(S(=O)(=O)N(C)C[C@H]2OCCCC[C@H](C)Oc3ccc(NS(=O)(=O)c4c(C)noc4C)cc3C(=O)N([C@H](C)CO)C[C@H]2C)cc1 | 0 | 1[16.7 µM] | 11 | nt | nt
Cc1noc(C)c1S(=O)(=O)N(C)C[C@H]1OCCCC[C@@H](C)Oc2ccc(NS(=O)(=O)c3ccc(Cl)cc3)cc2C(=O)N([C@@H](C)CO)C[C@@H]1C | 5 | -2[16.7 µM] | -12 | nt | nt
O=C(O)C[C@H]1C[C@H]2c3cc(NC(=O)c4ccc5c(c4)OCO5)ccc3O[C@H]2[C@@H](CO)O1 | -2 | 0[16.7 µM] | 39* | -2 | i
COCC(=O)Nc1ccc2c(c1)C(=O)N(C)C[C@@H](OC)[C@H](C)CN(Cc1ccccc1F)[C@H](C)CO2 | 0 | nt | 3 | -6 | nt
COCC(=O)Nc1ccc2c(c1)OC[C@@H](C)N(C(=O)c1cnccn1)C[C@@H](C)[C@@H](OC)CN(C)C2=O | -5 | nt | 156* | -1 | i
CO[C@@H]1CN(C)C(=O)c2ccc(NC(=O)c3ccccc3F)cc2OC[C@@H](C)N(C(C)=O)C[C@@H]1C | -2 | nt | 2 | -8 | nt
CCC(=O)N1C[C@@H](C)[C@@H](OC)CN(C)C(=O)c2ccc(NC(=O)COC)cc2OC[C@H]1C | 0 | 12[16.7 µM] | -6 | -9 | nt
COCC(=O)Nc1ccc2c(c1)OC[C@@H](C)N(C(=O)COC)C[C@@H](C)[C@@H](OC)CN(C)C2=O | 0 | nt | 197* | -3 | i
COCC(=O)Nc1ccc2c(c1)C(=O)N(C)C[C@@H](OC)[C@@H](C)CN(Cc1ccccc1F)[C@@H](C)CO2 | 1 | nt | 180* | 4 | i

Part of the list above, showing only Yeast UUG start-2, Statin myotox sup and Cneo AK release.
| mol | Yeast UUG start-2 | Statin myotox sup | Cneo AK release |
| --- | --- | --- | --- |
| O=C(C[C@@H]1CC[C@H]2[C@@H](COC[C@@H](O)CN2S(=O)(=O)c2cccc(F)c2)O1)Nc1ccccc1 | nt | -2 | 4 |
| COc1ccc(S(=O)(=O)N(C)C[C@H]2OCCCC[C@H](C)Oc3ccc(NS(=O)(=O)c4c(C)noc4C)cc3C(=O)N([C@H](C)CO)C[C@H]2C)cc1 | nt | nt | 0 |

2 of these compounds, set out differently:
Each structure is followed by: Cneo AK release	miR122 inh	Yeast UUG start-1	Statin myotox sup	Yeast UUG start-2
> O=C(C[C@@H]1CC[C@H]2[C@@H](COC[C@@H](O)CN2S(=O)(=O)c2cccc(F)c2)O1)Nc1ccccc1
    4	-4[16.7 µM]	nt	-2	nt
> COCC(=O)Nc1ccc2c(c1)C(=O)N(C)C[C@@H](OC)[C@@H](C)CN(Cc1ccccc1F)[C@@H](C)CO2
    1	nt	180*	4	i

(list continues)
SMILES | Cneo AK release | miR122 inh | Yeast UUG start-1 | Statin myotox sup | Yeast UUG start-2
CO[C@@H]1CN(C)C(=O)c2ccc(NC(=O)c3ccccc3F)cc2OC[C@H](C)N(C(C)=O)C[C@@H]1C | -13 | nt | 123* | 11 | i
COc1ccc(NC(=O)Nc2ccc3c(c2)C(=O)N([C@H](C)CO)C[C@H](C)[C@@H](CN(C)C(=O)C2CCCCC2)OCCCC[C@H](C)O3)cc1 | 1 | -6[16.7 µM] | -5 | 41 | nt
COc1ccc(S(=O)(=O)N(C)C[C@H]2Oc3ccc(NC(=O)CCCN(C)C)cc3C(=O)N([C@@H](C)CO)C[C@H]2C)cc1 | 5 | -3[16.7 µM] | 3 | -8 | nt
CC(C)C[C@@H](CNCC(=O)[C@H](Cc1ccccc1)NC(=O)c1[nH]cnc1C(=O)N[C@@H](C)CN)NC(=O)c1nc[nH]c1C(=O)N[C@@H](C)C(=O)O | 2 | 0 | 130* | 12 | 3
CC(C)C[C@@H](CNCC(=O)[C@H](C)NC(=O)c1[nH]cnc1C(=O)N[C@@H](C)CN)NC(=O)c1nc[nH]c1C(=O)N[C@@H](C)C(=O)O | 5 | -3 | 147* | 7 | 1
COC(=O)c1cn(NC(=O)Cc2ccc(OC)c(OC)c2)c(=O)c2ccccc12 | 1 | 2 | 479* | 4 | -1
O=C(Cc1ccccc1)N1C[C@H]2[C@@H](c3ccccc31)[C@@H](CO)N2C(=O)Nc1ccc(F)cc1 | -9 | 3[16.7 µM] | 4 | -35 | nt
C[C@@H]1CN([C@@H](C)CO)C(=O)c2cc(NS(=O)(=O)c3ccc(F)cc3)ccc2O[C@@H](C)CCCCO[C@H]1CN(C)C(=O)CCC(F)(F)F | 6 | 1[16.7 µM] | 4 | nt | nt
CCN(CC)S(=O)(=O)c1ccc(C(=O)Nc2cc(C)cc(C)c2)cc1 | -2 | -5 | 322* | -25 | 3
CCN(CC)S(=O)(=O)c1cccc(C(=O)Nc2cc(C)cc(C)c2)c1 | -2 | 17 | 1 | -11 | nt
CC(=O)Nc1ccc(OC(F)(F)C(F)F)c(NC(C)=O)c1 | 2 | 0 | -1 | 19 | nt
C=C(C)C(=O)Nc1ccc(OC(F)(F)C(F)F)c(NC(=O)C(=C)C)c1 | 2 | 1 | 635* | -15 | -6
COc1ccccc1CNC(=O)C[C@@H]1CC[C@@H](NC(=O)CN(C)C)[C@H](CO)O1 | 2 | nt | -13 | 4 | nt
CC1CCN(C(=O)Cc2nn(C)c(=O)c3ccccc23)CC1 | 1 | 0 | -9 | 7 | 4
Cn1nc(CC(=O)N2CCN(c3ccccc3)CC2)c2ccccc2c1=O | -1 | 344* | -8 | nt | -2
COc1cc(SC)ccc1C(=O)Nc1nc(C)cc(C)n1 | -4 | -8 | -13 | -3 | nt
COc1cc(SC)ccc1C(=O)Nc1ccccc1C#N | 3 | 4 | 501* | 99* | 4
CN(C)c1ccc(C=NCCC2(O)CCOC(C)(C)C2)cc1 (centres undefined) | 1 | -5 | 118* | 17 | -2
COc1ccccc1C1(CCN=Cc2ccc(N(C)C)cc2)CCOC(C)(C)C1 (centres undefined) | 1 | -5 | 15 | nt | nt
Cc1nc(N2CCN(S(=O)(=O)c3ccccc3C#N)CC2)c2c(-c3ccccc3)csc2n1 | -3 | nt | 141* | -99 | -2
O=C(NCC(F)(F)F)[C@H]1[C@H](CO)[C@H]2Cn3c(ccc(-c4cccnc4)c3=O)[C@@H]1N2Cc1ccccc1 | -3 | nt | nt | 4 | nt
C[C@H]1CN([C@@H](C)CO)C(=O)Cc2cc(NC(=O)C3CCCCC3)ccc2O[C@@H]1CN(C)S(=O)(=O)c1ccc(F)cc1 | -1 | -6[16.7 µM] | -3 | 11 | nt

Compound activity as filed in PubChem BioAssay.
